# Measurements reported in patent publication US20230123135A1 (priority 2020, published 2023).
# Columns and labels:
# [1] = Clinical trials for PAX-1, toxicity; settings: 472 patients in clinical trials so far; a portion given up to 20 mg/day
# LPS-induced ARDS model = experiment: Survival analysis after LPS 20 mg/kg intraperitoneal; format: in vivo, Mus musculus (BALB/c); settings: 48 h post-LPS
# IL-1β = IL-1β in BALF, LPS-induced ARDS model; format: in vivo, Mus musculus (BALB/c)
substance,measurement,setting,value
sodium meta-arsenite,death due to the toxicity of the drug,[1],No death has been reported
same,survival compared to the negative control group (G1),"LPS-induced ARDS model; G3 SMA 1.54 mg/kg oral, p<0.005",extended
same,survival compared to the negative control group (G1),"LPS-induced ARDS model; G4 SMA 2.05 mg/kg oral, p<0.0005",extended
same,inhibitory rate of IL-1β production (negative control as 100%),"IL-1β; G2 SMA 1.03 mg/kg, 4 h",92%
same,inhibitory rate of IL-1β production (negative control as 100%),"IL-1β; G2 SMA 1.03 mg/kg, 6 h",87%
same,inhibitory rate of IL-1β production (negative control as 100%),"IL-1β; G2 SMA 1.03 mg/kg, 12 h",98%
same,inhibitory rate of IL-1β production (negative control as 100%),"IL-1β; G3 SMA 1.54 mg/kg, 4 h",81%
same,inhibitory rate of IL-1β production (negative control as 100%),"IL-1β; G3 SMA 1.54 mg/kg, 6 h",75%
same,inhibitory rate of IL-1β production (negative control as 100%),"IL-1β; G3 SMA 1.54 mg/kg, 12 h",92%
same,inhibitory rate of IL-1β production (negative control as 100%),"IL-1β; G4 SMA 2.05 mg/kg, 4 h",73%
same,inhibitory rate of IL-1β production (negative control as 100%),"IL-1β; G4 SMA 2.05 mg/kg, 6 h",70%
same,inhibitory rate of IL-1β production (negative control as 100%),"IL-1β; G4 SMA 2.05 mg/kg, 12 h",81%
